Literature values, collected in US20250073359A1, “RADIOLABELED BIOMOLECULES AND THEIR USE” (DUKE UNIVERSITY, priority 2017, published 2025).

System: HER2-expressing human breast carcinoma lines
Conditions: 3 HER2-expressing human breast carcinoma lines, in vitro

For “^211At-labeled trastuzumab: anti-HER2 monoclonal antibody trastuzumab labeled with the α-emitter ^211At”, the “relative biological effectiveness versus conventional external beam therapy” value is given as “about 10 times”.
